About 7,500 (2.1%) of roughly 360,000 compounds were called active. These results got no clear call from the source, so the numbers are uncertain. Calls come from the whole dose curve; as a rule, active = well fitted cell-killing curve with a large enough effect; inconclusive = small, poorly fitted or top-dose-only effect, or effect the other way, or another doubt; inactive = no such curve, though single readings can be large or run the other way.
Experiment: qHTS for induction of synthetic lethality in tumor cells producing 2HG: qHTS for the HT-1080-IDH1KD cell line;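 for activity, negative = toxicity: 0% = DMSO wells and -100% = cell-free medium wells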
Settings: HT-1080 IDH1 knockdown viability, ATP luminescence, 48 h; activity, negative = toxicity: at 46.1 µM (top of the series)
Potency is the fitted concentration of half-maximal effect.

SMILES | Potency | activity, negative = toxicity
O=C(OC1CN2CCC1CC2)C12CC3CC(CC(C3)C1)C2 (configuration not stated) | inconclusive: 23.1 µM | 
O=[N+]([O-])c1ccc(-c2cc([N+](=O)[O-])c(O)c([N+](=O)[O-])c2)cc1 |  | inconclusive: -30.8%
[N-]=[N+]=NC1CCCCC1NC(=O)c1cc([N+](=O)[O-])cc([N+](=O)[O-])c1 (configuration not stated) | inconclusive: 9.2 µM | 
O=[N+]([O-])c1cc([N+](=O)[O-])c(-c2ccn[nH]2)s1 | inconclusive: 20.6 µM | 
CCOC(=O)Nc1cccc([As](=O)(O)O)c1 |  | inconclusive: 30.2%
CCC1=CC2Cc3nc4ccc(Cl)cc4c(N)c3C(C1)C2 (configuration not stated) | inconclusive: 18.4 µM | 
O=[N+]([O-])c1ccc(O)c(/C=N/Nc2ccc([N+](=O)[O-])cc2[N+](=O)[O-])c1 | inconclusive: 23.1 µM | 
